Among the data in patent US9303023B2, “Pyrazole and imidazole derivatives useful as orexin antagonists” (ACTELION PHARMACEUTICALS LTD., priority 2011, dated 2016) are IC50 values, retold here.

By UniProt entry, the sequences of proteins in these tests, tags left out.
UniProt O43614, whole entry: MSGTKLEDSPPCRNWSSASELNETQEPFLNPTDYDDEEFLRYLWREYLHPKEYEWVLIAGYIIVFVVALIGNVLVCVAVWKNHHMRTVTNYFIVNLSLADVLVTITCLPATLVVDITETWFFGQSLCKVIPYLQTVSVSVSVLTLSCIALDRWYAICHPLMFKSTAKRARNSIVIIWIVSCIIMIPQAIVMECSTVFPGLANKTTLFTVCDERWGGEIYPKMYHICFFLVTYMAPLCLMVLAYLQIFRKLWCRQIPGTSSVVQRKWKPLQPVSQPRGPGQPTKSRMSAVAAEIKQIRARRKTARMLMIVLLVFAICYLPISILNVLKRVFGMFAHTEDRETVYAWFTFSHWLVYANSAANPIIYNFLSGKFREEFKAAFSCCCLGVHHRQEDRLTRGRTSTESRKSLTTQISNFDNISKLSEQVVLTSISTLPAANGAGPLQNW

The first test has as its target human orexin-2 receptor (Homo sapiens (Human), UniProt O43614). As to the kind of experiment: In vitro intracellular calcium measurements (FLIPR), antagonism of orexin-A response, OX2. The settings on record: CHO cells expressing human orexin-2 receptor; 3 nM orexin-A; compound incubation time 120 min. Type of test: cell-based. Background: Calcium flux is commonly read through the fluorescence of an indicator in the cells.
With `COc1cc(OC)nc(N2CCCC2Cn2cc(NC(=O)c3ncoc3-c3cccc(C)c3)cn2)n1` (racemic) [Example 141, rac-N-(1-((1-(4,6-dimethoxypyrimidin-2-yl)pyrrolidin-2-yl)methyl)-1H-pyrazol-4-yl)-5-(m-tolyl)oxazole-4-carboxamide], the IC50 (as a rule, the point on the concentration scale where inhibition reaches its midpoint) stood at 320 nM.

On to `Cc1cccc(-c2ocnc2C(=O)Nc2cnn(CCn3c(C)nc4ccccc43)c2)c1` [Example 4, 5-m-Tolyl-oxazole-4-carboxylic acid {1-[2-(2-methyl-benzoimidazol-1-yl)-ethyl]-1H-pyrazol-4-yl}-amide], for which the IC50 was 176 nM.

In the case of `COc1cc(OC)nc(OCCn2cc(NC(=O)c3ncoc3-c3cccc(N(C)C)c3)cn2)n1` [Example 11, 5-(3-Dimethylamino-phenyl)-oxazole-4-carboxylic acid {1-[2-(4,6-dimethoxy-pyrimidin-2-yloxy)-ethyl]-1H-pyrazol-4-yl}-amide], the IC50 amounted to 154 nM.

For the molecule `Cc1cccc(-c2ocnc2C(=O)Nc2cnn(CCCN3CCc4ccccc43)c2)c1` [Example 13, 5-m-Tolyl-oxazole-4-carboxylic acid {1-[3-(2,3-dihydro-indol-1-yl)-propyl]-1H-pyrazol-4-yl}-amide], the IC50 came to 502 nM.

Consider `Cc1cccc(-c2ocnc2C(=O)Nc2cnn(CCNc3cc(F)ccn3)c2)c1` [Example 14, 5-m-Tolyl-oxazole-4-carboxylic acid {1-[2-(4-fluoro-pyridin-2-ylamino)-ethyl]-1H-pyrazol-4-yl}-amide], for which the IC50 stood at 379 nM.

For `COc1ccnc(NCCn2cc(NC(=O)c3ncoc3-c3cccc(C)c3)cn2)c1` [Example 15, 5-m-Tolyl-oxazole-4-carboxylic acid {1-[2-(4-methoxy-pyridin-2-ylamino)-ethyl]-1H-pyrazol-4-yl}-amide], the IC50 turned out to be 254 nM.

In the case of `COc1cc(OC)nc(NCCn2cc(NC(=O)c3ncoc3-c3cccc(N4CCCC4)c3)cn2)n1` [Example 17, 5-(3-Pyrrolidin-1-yl-phenyl)-oxazole-4-carboxylic acid {1-[2-(4,6-dimethoxy-pyrimidin-2-ylamino)-ethyl]-1H-pyrazol-4-yl}-amide], the IC50 was 201 nM.

As to `COc1cc(OC)nc(NCCn2cc(NC(=O)c3ncoc3-c3cccc(N4CCOCC4)c3)cn2)n1` [Example 18, 5-(3-Morpholin-4-yl-phenyl)-oxazole-4-carboxylic acid {1-[2-(4,6-dimethoxy-pyrimidin-2-ylamino)-ethyl]-1H-pyrazol-4-yl}-amide], the IC50 was 134 nM.

Still in this test, the particulars now being: CHO cells expressing human orexin-2 receptor; 3 nM orexin-A; compound incubation time of 10 min (#).
As to `Cc1cccc(-c2ocnc2C(=O)Nc2cnn(CCc3cccc(F)c3)c2)c1` [Example 2, 5-m-Tolyl-oxazole-4-carboxylic acid {1-[2-(3-fluoro-phenyl)-ethyl]-1H-pyrazol-4-yl}-amide], the IC50 was 1780 nM.

As to `Cc1cccc(-c2ocnc2C(=O)Nc2cnn(CCNc3ccc(F)cn3)c2)c1` [Example 5, 5-m-Tolyl-oxazole-4-carboxylic acid {1-[2-(5-fluoro-pyridin-2-ylamino)-ethyl]-1H-pyrazol-4-yl}-amide], the IC50 is 471 nM.

With `Cc1ccc(NCCn2cc(NC(=O)c3ncoc3-c3cccc(C)c3)cn2)nc1` [Example 6, 5-m-Tolyl-oxazole-4-carboxylic acid {1-[2-(5-methyl-pyridin-2-ylamino)-ethyl]-1H-pyrazol-4-yl}-amide], the IC50 amounted to 1040 nM.

On to `COc1cccc(OCCn2cc(NC(=O)c3ncoc3-c3cccc(C)c3)cn2)c1` [Example 8, 5-m-Tolyl-oxazole-4-carboxylic acid {1-[2-(3-methoxy-phenoxy)-ethyl]-1H-pyrazol-4-yl}-amide], for which the IC50 stood at 514 nM.

With `COc1cc(OC)nc(OCCn2cc(NC(=O)c3ncoc3-c3cccc(F)c3)cn2)n1` [Example 10, 5-(3-Fluoro-phenyl)-oxazole-4-carboxylic acid {1-[2-(4,6-dimethoxy-pyrimidin-2-yloxy)-ethyl]-1H-pyrazol-4-yl}-amide], the IC50 worked out at 53 nM.
